Species on record: Rattus norvegicus
Experiment: Compound was evaluated for relative analgesic potency in Sprague-Dawley rat

CN1CC[C@]23c4c5ccc(O)c4O[C@H]2[C@@H](O)C=C[C@H]3[C@H]1C5
Relative analgesic potency: 1

Reference: ChEMBL document CHEMBL1123143, “Analgesics of the 6,14-ethenomorphinan type. 6-deoxy-7 alpha-orvinols and 6-deoxy-8 alpha-orvinols” (1985)
